From US20100041873A1

Biological target: Human IL-21 receptor on Baf3/KZ134/huIL-21R cells (human) (UniProt Q9HBE5)
Assay: cell-based or functional assay

Substance: Recombinant murine IL-21 (from UniProt Q9ES17 18-146) (ligand)
- EC90, 24 hr STAT-Luciferase assay in Baf3/KZ134/huIL-21R cells: 6.41 nM
